The source of these data is patent US20250101038A1, “COMPOUNDS” (priority 2021, published 2025).

Sequences of proteins named here, by UniProt entry; tags and fusion partners are left off. Residues count along the entry.
UniProt P28223, whole entry: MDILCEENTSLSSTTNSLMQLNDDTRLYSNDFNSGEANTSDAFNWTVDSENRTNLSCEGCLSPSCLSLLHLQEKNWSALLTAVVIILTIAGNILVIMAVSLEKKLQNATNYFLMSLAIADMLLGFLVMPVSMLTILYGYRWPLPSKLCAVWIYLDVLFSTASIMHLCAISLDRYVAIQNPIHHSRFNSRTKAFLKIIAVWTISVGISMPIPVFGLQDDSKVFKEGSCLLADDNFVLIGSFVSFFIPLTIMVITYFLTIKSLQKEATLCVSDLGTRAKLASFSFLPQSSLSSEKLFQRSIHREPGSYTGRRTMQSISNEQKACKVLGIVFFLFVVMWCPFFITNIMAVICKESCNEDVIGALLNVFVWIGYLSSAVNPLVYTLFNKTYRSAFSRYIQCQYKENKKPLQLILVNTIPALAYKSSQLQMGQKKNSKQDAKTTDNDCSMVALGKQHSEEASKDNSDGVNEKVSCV
UniProt P41595, whole entry: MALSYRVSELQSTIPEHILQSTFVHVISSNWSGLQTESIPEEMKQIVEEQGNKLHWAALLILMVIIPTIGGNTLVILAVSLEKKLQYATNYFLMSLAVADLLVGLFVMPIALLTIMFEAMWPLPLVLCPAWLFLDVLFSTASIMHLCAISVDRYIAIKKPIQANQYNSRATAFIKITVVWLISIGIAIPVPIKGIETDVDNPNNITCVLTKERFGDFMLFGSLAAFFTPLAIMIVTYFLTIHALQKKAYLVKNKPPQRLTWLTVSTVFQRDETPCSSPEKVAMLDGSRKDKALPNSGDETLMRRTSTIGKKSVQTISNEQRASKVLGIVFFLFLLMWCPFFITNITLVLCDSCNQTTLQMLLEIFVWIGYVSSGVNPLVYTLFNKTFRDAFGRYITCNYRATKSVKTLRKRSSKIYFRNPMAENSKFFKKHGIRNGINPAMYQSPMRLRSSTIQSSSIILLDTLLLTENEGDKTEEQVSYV
UniProt P28335, 33-458 limits assumed: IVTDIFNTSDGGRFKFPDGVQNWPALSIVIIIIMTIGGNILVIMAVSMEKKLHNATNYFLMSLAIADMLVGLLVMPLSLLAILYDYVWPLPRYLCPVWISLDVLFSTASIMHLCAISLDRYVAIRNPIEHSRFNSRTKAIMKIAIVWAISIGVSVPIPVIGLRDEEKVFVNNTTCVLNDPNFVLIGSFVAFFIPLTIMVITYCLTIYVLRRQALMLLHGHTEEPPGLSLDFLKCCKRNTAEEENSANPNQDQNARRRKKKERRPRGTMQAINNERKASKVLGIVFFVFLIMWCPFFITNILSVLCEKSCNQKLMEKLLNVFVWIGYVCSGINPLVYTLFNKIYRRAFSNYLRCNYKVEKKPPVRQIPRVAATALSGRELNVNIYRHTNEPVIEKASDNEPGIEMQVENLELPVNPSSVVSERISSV

The target of one test is 5-HT2A receptor (Homo sapiens, UniProt P28223). Put plainly: FLIPR Ca2+ flux functional assay, 5-HT2A. The test is classed as cell-based. The method, then:
Activity at 5-HT2A, 5-HT2B and 5-HT2C receptors was determined using a FLIPR Ca^2+ flux assay at WuXi AppTec Co. Ltd. (Hong Kong) Discovery Biology Unit according to their standard protocols. Briefly, stably transfected cells expressing the receptor of interest (HEK293 for 5-HT2A and 5-HT2C; CHO-K1 for 5-HT2B) were grown and plated in a 384 well plate and incubated at 37° C. and 5% CO2 overnight. A 250 mM stock solution of probenecid in FLIPR calcium assay buffer (10 mL) was freshly prepared and combined with a fluorescent dye (Fluo-4 Direct) to give a final assay concentration of 2.5 mM. Reference compounds were 4-fold serially diluted and the screening compounds were 3-fold serially diluted in 100% DMSO for 10 points using Agilent Bravo, and 750 nL was added to a 384 well compound plate using Echo along with 30 μL assay buffer. The fluorescent dye was then added to the assay plate along with assay buffer to a final volume of […]. The cell plate was incubated for 50 min at 37° C. and 5% CO2 and placed into the FLIPR Tetra along with the compound plate. 10 μL of references and compounds were then transferred from the compound plate into the cell plate and the fluorescent signal was read.

Another test deals with 5-HT2B receptor (Homo sapiens, UniProt P41595). As to conditions: agonist activity, Ca2+ flux, CHO-K1 cells. (A change in cytosolic calcium serves as a functional read-out for many receptors and channels.)
For the next test, the target named is 5-HT2C receptor (Homo sapiens, UniProt P28335). As to conditions: agonist activity, Ca2+ flux, HEK293 cells.

For `COc1cc(C)cc2[nH]cc(CCN(C)C)c12`, the “5-HT2A Emax” value at 5-HT2A receptor (agonist activity, HEK293 cells) is given as 63.73%. In addition, the concentration giving a half-maximal response (EC50) (commonly the concentration at which the effect is half-maximal) is 22.6 nM at 5-HT2A receptor (read-out: 5-HT2A EC50, agonist activity, HEK293 cells); more than 10000 nM on 5-HT2B receptor (read-out: 5-HT2B EC50); 25.7 nM on 5-HT2C receptor (read-out: 5-HT2C EC50). Also, on 5-HT2B receptor, the “5-HT2B Emax” value amounted to 0.19%. Further, on 5-HT2C receptor, the “5-HT2C Emax” value is on record as 74.32%.
